Here are results for one compound from patent US20110245496A1, “Quinazoline Salt Compounds” (priority 2007, published 2011).

The series is described as follows: Salt solubility measurement in water. Particulars: stirred at ambient temperature 18-20 hours, filtered, hplc assay.

SMILES strings stand for the structures.

Turning to `CS(=O)(=O)CCNCc1ccc(-c2ccc3ncnc(Nc4ccc(OCc5cccc(F)c5)c(Cl)c4)c3c2)o1.O=C(O)c1ccccc1O`, the “Solubility as free base” value worked out at 2 µg/mL and the Solubility as salt is 3 µg/mL.
